## Binding of CDR-mutated scFvs to a peptide of the spike HR2 region

Binding partner: SARS-CoV-2 spike HR2 peptide, sequence PDVDLGDISGINAS.

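Phage display of a naive human antibody library on the peptide gave the parent. The library (AAYL52) carries one to three amino acid substitutions per variant, with no insertions or deletions. The assay is AlphaSeq: two haploid yeast populations carry antibody and antigen on their surface. Binding brings cells together so that they mate, and sequencing counts the barcode pairs among the diploids. Read counts were normalised to the haploid input and turned into Kd by a linear fit to BCL2-family pairs of known affinity, for each replicate. Mating was done three times.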

Ab-95 is the parent antibody, in scFv form: VH, then a (GGGGS)3 linker, then VL. The heavy chain is unchanged in all variants.
VH: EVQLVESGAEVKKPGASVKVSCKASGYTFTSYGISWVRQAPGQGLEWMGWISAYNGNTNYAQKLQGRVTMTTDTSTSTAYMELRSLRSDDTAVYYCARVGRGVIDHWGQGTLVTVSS
VL: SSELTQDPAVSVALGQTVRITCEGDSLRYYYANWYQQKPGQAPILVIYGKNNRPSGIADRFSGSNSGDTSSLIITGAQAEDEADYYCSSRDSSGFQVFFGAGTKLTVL

The parent's light chain CDRs are EGDSLRYYYAN, GKNNRPS, SSRDSSGFQVF; each variant's own CDRs replace them letter for letter.
Values are log10 of the apparent Kd in nM; lower means stronger binding.
The mean shown is taken over the replicates in which the pair was detected.
A pair that was not seen in that replicate is written "nd"; this usually means weak binding, but a binder can also be missed.

EGDSLRYYYAN / GKNNRPS / SKGDSSGIQVF: 2.80, 2.65, 2.81 (mean 2.75; controls 1 of 9).
AGDDLRYYYAN / GKKNRPS / SSRDSSGFQVF: nd, 4.73, 4.42 (mean 4.58; controls 5 of 9).
EGDSLSYYYAN / GKNNRPS / SSRTSSYFQVF: 4.21, 3.43, nd (mean 3.82; controls 4 of 9).
ELDSLRYYYAN / GKNNRPS / SSRDSSGFSGF: 4.85, nd, nd (controls 2 of 9).
EGDELRYYYAN / GKNNRFS / SSRDSSGFRVF: 3.88, nd, nd (controls 4 of 9).
EGDSLRYYYAN / GSNNRPS / SSRDDSGFQVS: nd, 4.55, nd (controls 3 of 9).
EGDSLGYYYAN / GKNVRPS / SIRDSSGFQVF: 4.44, 3.56, 2.67 (mean 3.56; controls 4 of 9).
EGDSLRYRYAN / GKNNRHN / SSRDSSGFQVF: 2.23, 2.35, 1.82 (mean 2.14; controls 3 of 9).
EGDSLRYYYAN / GKNNRPS / SSRDSSLFQVF: 3.25, 3.03, 2.59 (mean 2.96; controls 1 of 9).
EGDSLRYYIAN / GKNNRPS / SVRDSSGFQVF: 3.36, 3.15, 2.57 (mean 3.03; controls 4 of 9).
EGESLRYYYAN / QKNNRPS / SSRDSSGWQVF: 3.64, 3.67, 3.35 (mean 3.55; controls 5 of 9).
ETDSLRYYYAN / GKNNRPS / ISRDSSGFSVF: 4.49, nd, nd (controls 3 of 9).
EGDSVRNYYAN / GKNNRPS / SSRDSSGFQVF: 2.28, 2.11, 1.79 (mean 2.06; controls 4 of 9).
SGDSLRYYYAN / GRNNRAS / SSRDSSGFQVF: 2.17, 2.24, 1.81 (mean 2.07; controls 3 of 9).
EGDSLRYYYAN / GKNNRPS / SSRVSSGEQVF: 2.46, 2.43, nd (mean 2.44; controls 1 of 9).
EGDCLRYYYAN / GKNNRPS / ASRDSSGFQVF: nd, 3.17, nd (controls 1 of 9).
EGDSLRYYYAN / GKNDRPS / SSRESDGFQVF: 2.61, 2.82, 1.62 (mean 2.35; controls 4 of 9).
CGDSLERYYAN / GKNNRPS / SSRDSSGFQVF: 3.02, 2.33, 2.18 (mean 2.51; controls 2 of 9).
EGDSLRNIYAN / GKNNRPS / SSRDSSCFQVF: 1.96, 1.92, 1.61 (mean 1.83; controls 1 of 9).
EGLSLRYYTFN / GKNNRPS / SSRDSSGFQVF: nd, 3.90, nd (controls 1 of 9).
ENDSLRYFYAN / GKNNRPS / SSRDSSGFQWF: 3.43, nd, 3.86 (mean 3.64; controls 1 of 9).
EGSSLRYYYAN / GKNNRPS / SSRDSSGIQVF: 2.58, 2.94, 3.39 (mean 2.97; controls 3 of 9).
EGDSLKYYYAN / GKNNNPS / SSRDSSGFQVK: 3.12, nd, nd (controls 1 of 9).
EGDSLRYYYAN / GKNNRPH / SSRDSSGFAVK: 4.60, nd, nd (controls 1 of 9).
EGDSLRRYYAN / GKNNEPS / SSRESSGFQVF: 3.68, nd, 4.19 (mean 3.93; controls 1 of 9).
EGDSLRYYYAN / RWNNRPS / SSRDSTGFQVF: nd, nd, 3.44 (controls 0 of 9).
EGDSLRYYYAN / GKQNRWS / SSRDGSGFQVF: 3.88, nd, nd (controls 3 of 9).
EGDTLRYYYAN / GKNNRPS / DSRDSSKFQVF: nd, 4.14, 3.99 (mean 4.07; controls 3 of 9).
EGDYLRYYYAH / GKNNCPS / SSRDSSGFQVF: 2.90, 5.17, nd (mean 4.03; controls 3 of 9).
EGDSLRYYYKN / GKNNRPS / SSRDSPGQQVF: nd, nd, 2.56 (controls 0 of 9).
EGDSLRYYYAN / GKNNRPS / SSRDSSLPQNF: 4.11, 3.58, nd (mean 3.85; controls 1 of 9).
EGDSLRYYYAN / GKNNRPS / NSRDSSAIQVF: nd, nd, nd (controls 1 of 9).
EGDDCRYYYAN / GKNSRPS / SSRDSSGFQVF: 2.74, 3.58, 3.86 (mean 3.39; controls 3 of 9).
EGDSLRYYYAN / GKNNRPQ / SSRESSGFHVF: nd, nd, nd (controls 3 of 9).
EGDSLRYYYAN / GKNNTPS / SKRDSSGFQVM: 3.29, 2.83, nd (mean 3.06; controls 1 of 9).

The last 4 entries again:

CDR-L1,CDR-L2,CDR-L3,log10 Kd (nM) by replicate,"log10 Kd (nM), mean",control signals
EGDSLRYYYAN,GKNNRPS,NSRDSSAIQVF,"nd, nd, nd",nd,1 of 9
EGDDCRYYYAN,GKNSRPS,SSRDSSGFQVF,"2.74, 3.58, 3.86",3.39,3 of 9
EGDSLRYYYAN,GKNNRPQ,SSRESSGFHVF,"nd, nd, nd",nd,3 of 9
EGDSLRYYYAN,GKNNTPS,SKRDSSGFQVM,"3.29, 2.83, nd",3.06,1 of 9

Background: pairings of library AAYL52 with three empty control strains gave a value in 28% of cases (median 3.91, 5th percentile 2.90). Values in that range, when seen in few replicates, are hard to tell from nonspecific mating. The control count says in how many pairings with the empty strains this scFv gave a signal.
In this assay the parent's reference entry averaged 2.31; its copy inside this library read 2.25.

From the AlphaSeq antibody data of Engelhart et al. 2022 (doi:10.1038/s41597-022-01779-4), copy in the FLAb collection.